Data as given in US7001887B2, “Peptide derivatives” (priority 2001, dated 2006).

Amino acid sequences for entries named in this document (tags omitted). Residues count along the entry.
UniProt P08709, 61-212 limits assumed: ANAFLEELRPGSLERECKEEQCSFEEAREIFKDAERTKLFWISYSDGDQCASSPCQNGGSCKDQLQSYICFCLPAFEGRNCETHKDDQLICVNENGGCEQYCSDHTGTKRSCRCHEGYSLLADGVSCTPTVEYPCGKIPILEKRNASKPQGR
UniProt P08709, 213-466 limits assumed: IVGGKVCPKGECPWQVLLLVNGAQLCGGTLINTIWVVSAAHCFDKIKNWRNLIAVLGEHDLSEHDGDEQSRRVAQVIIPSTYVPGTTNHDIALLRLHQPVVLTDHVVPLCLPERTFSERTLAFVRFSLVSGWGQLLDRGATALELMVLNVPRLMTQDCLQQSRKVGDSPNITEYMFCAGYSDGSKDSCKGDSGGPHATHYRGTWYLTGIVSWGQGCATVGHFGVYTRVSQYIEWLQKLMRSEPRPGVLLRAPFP

Biological target: human factor VIIa (Homo sapiens, UniProt P08709)
Experiment: biochemical
Protocol: 1. Assay for FVIIa-inhibiting Activity
A 10 vol % DMSO solution of a test compound (20 μL) was mixed with 40 μL Thromborel®S (50 mg/mL, Dade Behring, GTS-200A), 20 μL Spectrozyme®fVIIa (5 mmol/L, American Diagnostica Inc., #217L), 20 μL Tris buffer (500 mmol/L Tris/HCl, pH 7.5, 1500 mmol/L NaCl, 50 mmol/L CaCl2) and 80 μL distilled water, followed by stirring. […] The initial reaction velocity was set to 100% in the case of adding 10 vol % DMSO alone, instead of a test compound. […] This concentration was defined as an IC50 value.

## CCS(=O)(=O)N[C@H](Cc1ccc(-c2ccccc2)cc1)C(=O)N[C@@H](CCC(N)=O)C(=O)NCc1ccc(C(=N)N)cc1 [Example 65]
  pIC50: 7.03

pIC50: −log10 of the molar value.
